From BindingDB's records for doi:10.1021/jm101144f (Dana-Farber Cancer Institute, 2010) come the findings set out here.

The target of this test is Serine/threonine-protein kinase mTOR (Mus musculus, UniProt Q9JLN9).

Where only a bound is given, the exact number is not on record here.

Broadly, the IC50 is the concentration that gives 50% inhibition. Low values mean greater potency in that assay, high ones weaker potency in that assay.

`CN(C)CCn1c(=O)ccc2cnc3ccc(-c4cnc5ccccc5c4)cc3c21` [1-(2-(dimethylamino)ethyl)-9-(quinolin-3-yl)benzo[h][1,6]naphthyridin-2(1H)-one] showed an IC50 greater than 300 nM.
